This passage reports inhibition results from PubChem BioAssay AID602438 (Sanford-Burnham Center for Chemical Genomics, 2012).

The chains behind the UniProt entries cited, without tags or fusion partners.
UniProt O14786, whole entry: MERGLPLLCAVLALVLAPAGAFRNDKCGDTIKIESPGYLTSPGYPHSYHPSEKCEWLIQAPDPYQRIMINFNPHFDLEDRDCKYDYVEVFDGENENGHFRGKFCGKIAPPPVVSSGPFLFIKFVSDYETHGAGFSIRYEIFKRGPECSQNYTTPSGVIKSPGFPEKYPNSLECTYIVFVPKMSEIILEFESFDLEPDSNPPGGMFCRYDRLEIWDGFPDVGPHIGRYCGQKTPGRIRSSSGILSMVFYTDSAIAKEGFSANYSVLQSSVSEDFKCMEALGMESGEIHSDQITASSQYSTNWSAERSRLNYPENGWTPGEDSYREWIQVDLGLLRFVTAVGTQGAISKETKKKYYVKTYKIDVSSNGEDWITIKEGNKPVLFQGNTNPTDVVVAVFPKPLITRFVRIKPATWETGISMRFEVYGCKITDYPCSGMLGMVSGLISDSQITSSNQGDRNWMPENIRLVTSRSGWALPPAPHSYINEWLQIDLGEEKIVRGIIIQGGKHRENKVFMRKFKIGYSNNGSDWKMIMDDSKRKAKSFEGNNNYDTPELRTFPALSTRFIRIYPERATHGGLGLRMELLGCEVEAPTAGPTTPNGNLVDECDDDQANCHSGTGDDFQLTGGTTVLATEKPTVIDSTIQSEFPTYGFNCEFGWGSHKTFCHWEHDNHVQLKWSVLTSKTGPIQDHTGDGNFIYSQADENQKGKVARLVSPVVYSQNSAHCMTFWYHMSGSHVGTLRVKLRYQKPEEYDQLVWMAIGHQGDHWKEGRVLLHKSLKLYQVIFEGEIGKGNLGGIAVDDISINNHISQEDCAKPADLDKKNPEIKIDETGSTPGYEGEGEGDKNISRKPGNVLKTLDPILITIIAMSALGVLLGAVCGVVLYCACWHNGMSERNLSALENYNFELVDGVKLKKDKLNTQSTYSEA

Each structure is given as a SMILES string. The list shows a part of the results, in another mix than the full data. Calls of active or inactive are those of the source.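 The calls were made as follows: active = inhibition or corrected inhibition above about 18%, plus a signal ratio from 0.5 to 1.5 (limit read from the data, passing the limit was not always enough); inactive = the rest.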

The test deals with Neuropilin-1 (Homo sapiens) (UniProt O14786). Kind of test: NRP-1/CendR peptide interaction modulators – biochemical, fluorescence polarization, uHTS, primary screen (AID 602438). Particulars: FAM-RPARPAR peptide binding to NRP-1, fluorescence polarization; at 25 µM; stronger effect = higher value. (In general: Polarisation of emitted light reports the rotation of a fluorescent probe.)
Take `CCC(=O)N(c1ccccc1)C1(COC)CCN(CCn2nnn(CC)c2=O)CC1`: the inhibition (commonly the relative decrease from the control value, in per cent) is inactive: -2.9%.
With `CCC(=O)N(c1ccccc1)C1(COC)CCN(CCc2cccs2)CC1` the figure was inactive: -6.5%.
